Biological target: T1, 5-HT3 receptor (Bos taurus, UniProt F1N4Y2)
T1 construct: from tissue; host or cells: calf brain, entorhinal cortex and hippocampus; detergent (OPG) solubilised and purified on 5-HT-agarose
Assay: Current responses of gold-supported lipid bilayer sensor with incorporated 5-HT3 receptor during stimulation by agonists, without or with antagonist
Assay type: biochemical, calf
Experimental: A 1 mm^2 gold electrode was cleaned and inserted into the electrochemical cell as described in Example 5. First, 100 μl of the thiolipid/OPG solution (0.7 mM/48 mM in 0.1 M KCl) was added and the adsorption process followed as described in Example 6. After approximately 2 minutes, the solution was completely replaced. The sample was washed several times with 55 mM OGP in 0.1 M KCl.
A receptor-containing solution was prepared as follows: 2 mg (2.9 μmol) of DMPC, 2 mg (2.6 μmol) of POPC (i.e. an approximately 1:1 molar ratio of DMPC: POPC) and 2 mg ([…]) of OPG were ultrasonicated in 1 ml of 0.1 M KCl, until the solution became clear. This solution was mixed with 15 μg of the 5-HT3 receptor (1 mg/ml, in 40 mM OPG and complex buffer "A" as used in Example 4), 100 μl of the receptor-containing solution was placed in the cell. After about 2 minutes, the cell solution was diluted stepwise by the addition of small portions of 0.1 M KCl. Finally, the solution was completely replaced by 0.1 M KCl. The resulting layer was used for experiments within 5 hours at most, then being removed by washing with 55 mM OGP in 0.1 M KCl and formed again using the ice-cooled receptor solution.
50 μl portions of 5-HT solution "B" (20 μM 5-HT in 0.1 M KCl) were added successively to the layer with the incorporated receptor (still connected to the cell containing 500 μl of 0.1 M KCl). An interval of about 50 seconds was left between additions (the capacitive and the faradaic current reaching a constant value).
The construction of the receptor-containing system was performed as described above. Again, 500 μl of 0.1 M KCl was placed in the measurement cell but for stimulation, a solution "C" of 20 μM 1-phenylbiguanide, another agonist, in 0.1 M KCl was used.
The supported lipid bilayer, containing the 5-HT3 receptor, was formed as described in (ii). […] After each addition, the values of the capacitive and the faradaic currents were allowed to stabilize.
A large (geometrical area about 1 cm^2) AgCl-coated Ag wire served as the counter/reference electrode and was fixed at a defined distance from the working electrode. The impedance measurements were made using a two-channel lock-in amplifier (EG&G model 5206) at v=120 Hz, applying Uo =17.5 mV RMS to the electrochemical cell. The real and imaginary parts of the impedance were obtained from the currents in phase (faradaic component Ifarad) and 90° out of phase (capacitive component Icap) with the applied voltage, respectively. These currents were measured on a 1 k.OMEGA. resistor in series with the electrodes.

By UniProt entry, the sequences of proteins in these tests, tags left out. Residues count along the entry.
UniProt F1N4Y2, 29-488: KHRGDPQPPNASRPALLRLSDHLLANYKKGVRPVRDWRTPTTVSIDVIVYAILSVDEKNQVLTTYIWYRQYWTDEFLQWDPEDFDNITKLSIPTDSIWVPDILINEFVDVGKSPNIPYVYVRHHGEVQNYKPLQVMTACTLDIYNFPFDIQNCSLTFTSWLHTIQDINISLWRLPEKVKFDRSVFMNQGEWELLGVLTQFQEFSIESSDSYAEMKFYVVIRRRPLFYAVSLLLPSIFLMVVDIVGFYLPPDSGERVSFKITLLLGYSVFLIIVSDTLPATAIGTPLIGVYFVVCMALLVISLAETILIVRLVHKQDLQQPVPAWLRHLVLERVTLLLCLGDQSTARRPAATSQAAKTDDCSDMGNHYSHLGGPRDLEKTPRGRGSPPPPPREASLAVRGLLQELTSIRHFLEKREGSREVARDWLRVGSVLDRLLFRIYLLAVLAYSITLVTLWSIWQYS

[1] = with 10 nM ICS 205-930, 5-HT 14 μM
[2] = with 10 nM ICS 205-930, 5-HT 117 μM
[3] = with 10 nM ICS 205-930, 5-HT 200 μM
[4] = with 10 nM ICS 205-930, 5-HT 263 μM
[5] = with 10 nM ICS 205-930, 5-HT 311 μM
[6] = with 10 nM ICS 205-930, 5-HT 350 μM
[7] = with 10 nM ICS 205-930, 5-HT 382 μM
[8] = with 10 nM ICS 205-930, 5-HT 408 μM
[9] = with 10 nM ICS 205-930, 5-HT 431 μM
[10] = with 10 nM ICS 205-930, 5-HT 450 μM
[11] = with 10 nM ICS 205-930, 5-HT 700 μM (pure solution D)
[12] = without ICS, 5-HT 20.0 μM (pure solution B)

NCCc1c[nH]c2ccc(O)cc12 [5-hydroxytryptamine]
Icap current response (5-HT 1.82 μM, Experiment 1): 101.5 nA
Ifarad current response (5-HT 1.82 μM, Experiment 1): 25 nA
Icap current response (5-HT 1.82 μM, Experiment 2): 100 nA
Ifarad current response (5-HT 1.82 μM, Experiment 2): 23.2 nA
Icap current response (5-HT 3.33 μM, Experiment 1): 103.4 nA
Ifarad current response (5-HT 3.33 μM, Experiment 1): 26.2 nA
Icap current response (5-HT 3.33 μM, Experiment 2): 102.1 nA
Ifarad current response (5-HT 3.33 μM, Experiment 2): 24.5 nA
Icap current response (5-HT 4.62 μM, Experiment 1): 104.8 nA
Ifarad current response (5-HT 4.62 μM, Experiment 1): 26.9 nA
Icap current response (5-HT 4.62 μM, Experiment 2): 103.3 nA
Ifarad current response (5-HT 4.62 μM, Experiment 2): 25.2 nA
Icap current response (5-HT 5.71 μM, Experiment 1): 105.6 nA
Ifarad current response (5-HT 5.71 μM, Experiment 1): 27.3 nA
Icap current response (5-HT 5.71 μM, Experiment 2): 104.3 nA
Ifarad current response (5-HT 5.71 μM, Experiment 2): 25.6 nA
Icap current response (5-HT 6.66 μM, Experiment 1): 106.2 nA
Ifarad current response (5-HT 6.66 μM, Experiment 1): 27.5 nA
Icap current response (5-HT 6.66 μM, Experiment 2): 105.1 nA
Ifarad current response (5-HT 6.66 μM, Experiment 2): 26.0 nA
Icap current response (5-HT 7.50 μM, Experiment 1): 106.8 nA
Ifarad current response (5-HT 7.50 μM, Experiment 1): 27.7 nA
Icap current response (5-HT 7.50 μM, Experiment 2): 105.6 nA
Ifarad current response (5-HT 7.50 μM, Experiment 2): 26.2 nA
Icap current response (5-HT 8.24 μM, Experiment 1): 107.2 nA
Ifarad current response (5-HT 8.24 μM, Experiment 1): 27.7 nA
Icap current response (5-HT 8.24 μM, Experiment 2): 106.1 nA
Ifarad current response (5-HT 8.24 μM, Experiment 2): 26.3 nA
Icap current response (5-HT 8.89 μM, Experiment 1): 107.5 nA
Ifarad current response (5-HT 8.89 μM, Experiment 1): 27.7 nA
Icap current response (5-HT 8.89 μM, Experiment 2): 106.3 nA
Ifarad current response (5-HT 8.89 μM, Experiment 2): 26.3 nA
Icap current response (5-HT 9.47 μM, Experiment 1): 107.8 nA
Ifarad current response (5-HT 9.47 μM, Experiment 1): 27.7 nA
Icap current response (5-HT 9.47 μM, Experiment 2): 106.5 nA
Ifarad current response (5-HT 9.47 μM, Experiment 2): 26.3 nA
Icap current response (5-HT 10.0 μM, Experiment 1): 108.1 nA
Ifarad current response (5-HT 10.0 μM, Experiment 1): 27.7 nA
Icap current response (5-HT 10.0 μM, Experiment 2): 106.5 nA
Ifarad current response (5-HT 10.0 μM, Experiment 2): 26.3 nA
Icap current response (5-HT 10.5 μM, Experiment 1): 108.1 nA
Ifarad current response (5-HT 10.5 μM, Experiment 1): 27.7 nA
Icap current response (5-HT 10.5 μM, Experiment 2): 106.5 nA
Ifarad current response (5-HT 10.5 μM, Experiment 2): 26.3 nA
Icap current response [1]: 16.1 nA
Ifarad current response [1]: 89.1 nA
Icap current response [2]: 18.1 nA
Ifarad current response [2]: 89.8 nA
Icap current response [3]: 19.1 nA
Ifarad current response [3]: 90.2 nA
Icap current response [4]: 19.7 nA
Ifarad current response [4]: 90.4 nA
Icap current response [5]: 20.2 nA
Ifarad current response [5]: 90.6 nA
Icap current response [6]: 20.5 nA
Ifarad current response [6]: 90.7 nA
Icap current response [7]: 20.7 nA
Ifarad current response [7]: 90.7 nA
Icap current response [8]: 20.8 nA
Ifarad current response [8]: 90.7 nA
Icap current response [9]: 20.9 nA
Ifarad current response [9]: 90.7 nA
Icap current response [10]: 20.9 nA
Ifarad current response [10]: 90.7 nA
Icap current response [11]: 20.9 nA
Ifarad current response [11]: 90.7 nA
Icap current response (without ICS, 5-HT 0.1 μM): 16.6 nA
Ifarad current response (without ICS, 5-HT 0.1 μM): 89.0 nA
Icap current response (without ICS, 5-HT 1.8 μM): 17.8 nA
Ifarad current response (without ICS, 5-HT 1.8 μM): 90.3 nA
Icap current response (without ICS, 5-HT 3.3 μM): 18.9 nA
Ifarad current response (without ICS, 5-HT 3.3 μM): 91.0 nA
Icap current response (without ICS, 5-HT 4.6 μM): 19.4 nA
Ifarad current response (without ICS, 5-HT 4.6 μM): 91.5 nA
Icap current response (without ICS, 5-HT 5.7 μM): 19.8 nA
Ifarad current response (without ICS, 5-HT 5.7 μM): 91.8 nA
Icap current response (without ICS, 5-HT 6.7 μM): 20.1 nA
Ifarad current response (without ICS, 5-HT 6.7 μM): 92.0 nA
Icap current response (without ICS, 5-HT 7.5 μM): 20.3 nA
Ifarad current response (without ICS, 5-HT 7.5 μM): 92.1 nA
Icap current response (without ICS, 5-HT 8.9 μM): 20.7 nA
Ifarad current response (without ICS, 5-HT 8.9 μM): 92.3 nA
Icap current response (without ICS, 5-HT 10.0 μM): 21.0 nA
Ifarad current response (without ICS, 5-HT 10.0 μM): 92.5 nA
Icap current response (without ICS, 5-HT 11.7 μM): 21.2 nA
Ifarad current response (without ICS, 5-HT 11.7 μM): 92.6 nA
Icap current response [12]: 21.2 nA
Ifarad current response [12]: 92.6 nA

Source: patent publication US5756355A, “Lipid membrane sensors” (Ecole Polytechnique Federale de Lausanne, priority 1992, dated 1998)
